{"source": "PubChem BioAssay AID493191", "about": "(Broad Institute, 2011)", "note": "Only a part is listed here, and it is no random draw. Results with a measured potency or affinity are listed apart. Active and inactive are the calls of the source. How the calls were made is not given here."}
{"test": "growth inhibition of MALME3 cells – cell-based, CellTiter-Glo, cherry-picked, orthogonal assay for MITF inhibitor project, dose response (AID 493191)", "details": "MALME3 melanoma viability, CellTiter-Glo luminescence, 24 h; at 35 µM (top of the series)"}
{"smiles": "CCc1nc2c(n1)c1c(non1O)c1c2no[n+]1[O-]", "activity change, negative = inhibition": "inactive: -33.1%"}
